The target in this assay is Poly [ADP-ribose] polymerase 1 (Homo sapiens, UniProt P09874).

Amino acid sequences for entries named in this document (tags omitted).
UniProt P09874, whole entry: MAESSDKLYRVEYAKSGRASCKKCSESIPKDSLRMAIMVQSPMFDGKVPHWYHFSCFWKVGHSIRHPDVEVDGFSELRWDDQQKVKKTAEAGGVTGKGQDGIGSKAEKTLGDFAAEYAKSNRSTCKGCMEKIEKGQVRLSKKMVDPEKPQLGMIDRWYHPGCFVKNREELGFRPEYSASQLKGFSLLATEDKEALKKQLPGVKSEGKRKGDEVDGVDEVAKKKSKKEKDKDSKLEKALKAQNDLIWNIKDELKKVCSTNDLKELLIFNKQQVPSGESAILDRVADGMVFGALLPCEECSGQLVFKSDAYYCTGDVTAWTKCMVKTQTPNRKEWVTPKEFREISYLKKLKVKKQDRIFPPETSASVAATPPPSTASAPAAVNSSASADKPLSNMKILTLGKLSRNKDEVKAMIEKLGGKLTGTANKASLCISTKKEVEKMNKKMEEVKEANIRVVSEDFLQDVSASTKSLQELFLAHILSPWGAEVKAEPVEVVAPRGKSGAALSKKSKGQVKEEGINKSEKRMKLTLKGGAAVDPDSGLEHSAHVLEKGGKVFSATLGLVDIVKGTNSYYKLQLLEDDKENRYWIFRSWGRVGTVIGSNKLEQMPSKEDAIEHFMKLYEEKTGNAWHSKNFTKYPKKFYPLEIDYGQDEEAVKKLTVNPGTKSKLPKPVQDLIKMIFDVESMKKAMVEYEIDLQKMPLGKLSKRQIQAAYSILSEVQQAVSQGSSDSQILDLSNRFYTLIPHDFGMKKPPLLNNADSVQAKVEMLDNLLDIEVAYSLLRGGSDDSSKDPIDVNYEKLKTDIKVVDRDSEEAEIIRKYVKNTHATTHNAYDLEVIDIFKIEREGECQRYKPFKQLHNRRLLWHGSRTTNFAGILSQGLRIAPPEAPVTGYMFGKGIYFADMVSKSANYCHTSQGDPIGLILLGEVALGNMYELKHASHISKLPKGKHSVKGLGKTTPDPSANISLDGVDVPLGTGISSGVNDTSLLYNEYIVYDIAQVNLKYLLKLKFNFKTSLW

Experimental findings from ChEMBL document CHEMBL1148248 are described below.

As usually defined, the Ki is the equilibrium dissociation constant of an inhibitor or competing ligand from its target.

In turn, `COc1ccc(CN(C)c2ccc(-c3nc4c(C(N)=O)cccc4[nH]3)cc2)cc1` returned a Ki of 5.9 nM.

Take `NC(=O)c1cccc2[nH]c(-c3cccc(CN4CCCCC4)c3)nc12`: the Ki was 11.7 nM.
